Values quoted from earlier work in patent USRE48842E1, “Pyrimido-pyrrolo-oxazine-dione compound inhibitors of the cystic fibrosis transmembrane conductance regulator protein and uses therefor” (The Regents of the University of California, priority 2011, dated 2021).

Amino acid sequences for entries named in this document (tags omitted).
UniProt P13569, whole entry, species assumed: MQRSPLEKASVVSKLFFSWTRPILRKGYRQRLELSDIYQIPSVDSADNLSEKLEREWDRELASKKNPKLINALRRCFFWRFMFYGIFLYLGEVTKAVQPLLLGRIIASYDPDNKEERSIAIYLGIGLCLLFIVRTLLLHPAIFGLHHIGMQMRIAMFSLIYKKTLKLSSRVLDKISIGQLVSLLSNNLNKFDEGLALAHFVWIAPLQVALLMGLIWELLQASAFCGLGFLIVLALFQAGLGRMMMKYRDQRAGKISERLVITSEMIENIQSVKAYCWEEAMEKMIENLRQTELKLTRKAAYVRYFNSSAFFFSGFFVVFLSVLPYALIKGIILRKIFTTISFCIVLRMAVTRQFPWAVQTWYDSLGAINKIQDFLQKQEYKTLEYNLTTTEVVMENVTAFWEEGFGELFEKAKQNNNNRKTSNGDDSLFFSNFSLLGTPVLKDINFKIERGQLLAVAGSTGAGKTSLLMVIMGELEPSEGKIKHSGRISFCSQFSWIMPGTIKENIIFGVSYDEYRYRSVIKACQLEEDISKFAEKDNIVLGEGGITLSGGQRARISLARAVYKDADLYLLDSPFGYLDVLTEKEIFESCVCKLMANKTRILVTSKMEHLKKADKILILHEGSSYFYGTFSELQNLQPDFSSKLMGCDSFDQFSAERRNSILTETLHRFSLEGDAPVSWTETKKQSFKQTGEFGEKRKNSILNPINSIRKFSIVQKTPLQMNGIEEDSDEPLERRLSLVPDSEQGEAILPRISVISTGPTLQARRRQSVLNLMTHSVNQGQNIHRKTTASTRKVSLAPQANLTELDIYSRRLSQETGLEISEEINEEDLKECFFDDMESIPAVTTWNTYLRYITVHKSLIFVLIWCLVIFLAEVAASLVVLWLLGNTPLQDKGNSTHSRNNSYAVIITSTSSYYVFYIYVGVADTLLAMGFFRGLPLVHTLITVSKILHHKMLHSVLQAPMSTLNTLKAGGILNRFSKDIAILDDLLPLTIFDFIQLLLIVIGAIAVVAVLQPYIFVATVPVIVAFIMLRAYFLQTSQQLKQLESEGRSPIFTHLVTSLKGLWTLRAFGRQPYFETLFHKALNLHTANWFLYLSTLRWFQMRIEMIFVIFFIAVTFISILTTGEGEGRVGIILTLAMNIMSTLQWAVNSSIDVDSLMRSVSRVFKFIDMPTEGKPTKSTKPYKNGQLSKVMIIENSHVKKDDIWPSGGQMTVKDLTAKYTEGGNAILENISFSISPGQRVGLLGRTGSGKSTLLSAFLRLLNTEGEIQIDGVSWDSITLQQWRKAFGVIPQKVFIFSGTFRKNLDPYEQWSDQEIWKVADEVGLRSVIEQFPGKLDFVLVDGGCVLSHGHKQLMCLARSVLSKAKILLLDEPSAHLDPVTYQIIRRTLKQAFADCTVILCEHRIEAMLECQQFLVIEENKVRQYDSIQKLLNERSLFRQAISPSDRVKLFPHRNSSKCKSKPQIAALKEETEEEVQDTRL

Biological target: CFTR (Homo sapiens, UniProt P13569)
Settings: literature values; read-out: IC50 for CFTR inhibition; cited from earlier work

CFTRinh-172
IC50: 300 to 3000 nM
